The values that follow are results of earlier work, collected in patent US10828372B2, “Compositions and methods for the inhibition of fibrosis” (WISCONSIN ALUMNI RESEARCH FOUNDATION, priority 2017, dated 2020).

The conditions of the data set: literature examples; cited from earlier work.

In the case of “PEG-IFN-α2b: literature example of a PEGylated protein with reduced activity”, the “reduction of activity upon PEGylation” value is reported as 3.6 fold.
